Cyclic peptide permeability, from CycPeptMPDB

Collected by the curators of CycPeptMPDB (Li et al. 2023) from Townsend et al. 2020, doi:10.26434/chemrxiv.13335941.v1.

PAMPA measures passive passage through an artificial lipid membrane. Permeability is in 10^-6 cm/s, converted from the database's log10 values; higher is more permeable.

The entry for CC(C)C[C@@H]1C(=O)N2CCC[C@@H]2C(=O)N(Cc2ccccc2)CC(=O)N[C@@H](Cc2ccccc2)C(=O)N2CCC[C@@H]2C(=O)N(C)[C@@H](C)C(=O)N(C)[C@H](CC(C)C)C(=O)N1C lists PAMPA 1.2 × 10^-6 cm/s. The entry for CC(C)C[C@@H]1C(=O)N2CCC[C@H]2C(=O)N(Cc2ccccc2)CC(=O)N[C@@H](Cc2ccccc2)C(=O)N[C@H](C)C(=O)N(C)[C@@H](CC(C)C)C(=O)N1C lists PAMPA 4.3 × 10^-6 cm/s. CC(C)C[C@@H]1NC(=O)[C@@H](C)N(C)C(=O)[C@@H]2CCCN2C(=O)[C@H](Cc2ccccc2)NC(=O)[C@H](CC(C)C)N(C)C(=O)[C@H]2CCCN2C(=O)[C@H](CC(C)C)N(C)C1=O has PAMPA 7.4 × 10^-6 cm/s. CCCN1CC(=O)N(C)[C@@H](CC(C)C)C(=O)N(Cc2ccccc2)CC(=O)N2CCC[C@@H]2C(=O)N[C@H](CC(C)C)C(=O)N[C@@H](Cc2ccccc2)C(=O)N2CCC[C@@H]2C1=O is reported with PAMPA 3.6 × 10^-6 cm/s. The entry for CC(C)C[C@@H]1NC(=O)[C@H](C)N(C)C(=O)[C@H]2CCCN2C(=O)[C@H](Cc2ccccc2)NC(=O)CN(Cc2ccccc2)C(=O)[C@H]2CCCN2C(=O)[C@@H](CC(C)C)N(C)C1=O lists PAMPA 4.3 × 10^-6 cm/s. CC(C)C[C@@H]1NC(=O)[C@H](CC(C)C)N(C)C(=O)C[C@H](Cc2ccccc2)NC(=O)[C@@H]2CCCN2C(=O)[C@H](Cc2ccccc2)NC(=O)[C@H](CC(C)C)N(C)C(=O)[C@H]2CCCN2C1=O has PAMPA 4.3 × 10^-6 cm/s. The entry for CC(C)C[C@@H]1C(=O)N[C@@H](Cc2ccccc2)C(=O)N2CCC[C@@H]2C(=O)N(C)[C@H](C)C(=O)N(Cc2ccccc2)CC(=O)N[C@@H](Cc2ccccc2)CC(=O)N2CCC[C@@H]2C(=O)N1C lists PAMPA 1.9 × 10^-6 cm/s.

For CC(C)C[C@@H]1NC(=O)[C@H]2CCCN2C(=O)CN(Cc2ccccc2)C(=O)[C@@H](CC(C)C)N(C)C(=O)[C@@H](C)NC(=O)[C@H](Cc2ccccc2)NC1=O the data give PAMPA 0.79 × 10^-6 cm/s. CCCN1CC(=O)N[C@@H](CC(C)C)C(=O)N(Cc2ccccc2)CC(=O)N2CCC[C@H]2C(=O)N[C@H](CC(C)C)C(=O)N[C@@H](Cc2ccccc2)C(=O)N2CCC[C@H]2C1=O is reported with PAMPA 1.1 × 10^-6 cm/s. CCCN1CC(=O)N(C)[C@H](CC(C)C)C(=O)N(Cc2ccccc2)CC(=O)N2CCC[C@@H]2C(=O)N[C@@H](CC(C)C)C(=O)N[C@@H](Cc2ccccc2)C(=O)N2CCC[C@H]2C1=O has PAMPA 0.089 × 10^-6 cm/s. Listed for CC(C)C[C@@H]1C(=O)N[C@@H](Cc2ccccc2)CC(=O)N2CCC[C@H]2C(=O)N(C)[C@H](CC(C)C)C(=O)N[C@@H](Cc2ccccc2)C(=O)N2CCC[C@@H]2C(=O)N[C@@H](Cc2ccccc2)CC(=O)N1C: PAMPA 4.6 × 10^-6 cm/s. The entry for CCCN1CC(=O)N[C@H](CC(C)C)C(=O)N[C@@H](CC(C)C)C(=O)N2CCC[C@@H]2C(=O)N[C@H](CC(C)C)C(=O)N[C@@H](Cc2ccccc2)C(=O)N2CCC[C@@H]2C1=O lists PAMPA 2.3 × 10^-6 cm/s. CC(C)C[C@@H]1NC(=O)[C@H](C)N(C)C(=O)[C@H]2CCCN2C(=O)[C@H](Cc2ccccc2)NC(=O)[C@@H](CC(C)C)NC(=O)[C@@H]2CCCN2C(=O)[C@H](CC(C)C)N(C)C1=O has PAMPA 1.2 × 10^-6 cm/s. CC(C)C[C@@H]1NC(=O)[C@H]2CCCN2C(=O)CN(Cc2ccccc2)C(=O)[C@H](CC(C)C)NC(=O)[C@@H](C)NC(=O)[C@H](Cc2ccccc2)NC1=O has PAMPA 1.5 × 10^-6 cm/s.

For CC(C)C[C@@H]1C(=O)N(Cc2ccccc2)CC(=O)N2CCC[C@H]2C(=O)N(C)[C@H](CC(C)C)C(=O)N[C@@H](Cc2ccccc2)C(=O)N[C@@H](C)C(=O)N1C the data give PAMPA 1.7 × 10^-6 cm/s. For CC(C)C[C@@H]1C(=O)N[C@@H](Cc2ccccc2)C(=O)N[C@@H](Cc2ccccc2)CC(=O)N(C)[C@@H](CC(C)C)C(=O)N(Cc2ccccc2)CC(=O)N2CCC[C@@H]2C(=O)N1C the data give PAMPA 3.9 × 10^-6 cm/s. The entry for CCCN1CC(=O)N[C@@H](CC(C)C)C(=O)N(C)[C@H](CC(C)C)C(=O)N2CCC[C@H]2C(=O)N(C)[C@H](CC(C)C)C(=O)N[C@@H](Cc2ccccc2)C(=O)N2CCC[C@@H]2C1=O lists PAMPA 5.6 × 10^-6 cm/s.

The 2 highest values of PAMPA among the entries above:

SMILES	PAMPA (10^-6 cm/s)
CC(C)C[C@@H]1NC(=O)[C@@H](C)N(C)C(=O)[C@@H]2CCCN2C(=O)[C@H](Cc2ccccc2)NC(=O)[C@H](CC(C)C)N(C)C(=O)[C@H]2CCCN2C(=O)[C@H](CC(C)C)N(C)C1=O	7.4
CCCN1CC(=O)N[C@@H](CC(C)C)C(=O)N(C)[C@H](CC(C)C)C(=O)N2CCC[C@H]2C(=O)N(C)[C@H](CC(C)C)C(=O)N[C@@H](Cc2ccccc2)C(=O)N2CCC[C@@H]2C1=O	5.6

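Lipid, pH, incubation time, direction and concentration are not recorded in the data file. The list need not hold all peptides of the study. Entries at the database's floor value (log10 P of -10) are not listed.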